Laboratory results published in patent US9856252B2, “2-(hetero)aryl-benzimidazole and imidazopyridine derivatives as inhibitors of asparagime emethyl transferase” (Cancer Therapeutics CRC Pty Ltd, priority 2013, dated 2018).

Amino acid sequences for entries named in this document (tags omitted).
UniProt O14744, whole entry: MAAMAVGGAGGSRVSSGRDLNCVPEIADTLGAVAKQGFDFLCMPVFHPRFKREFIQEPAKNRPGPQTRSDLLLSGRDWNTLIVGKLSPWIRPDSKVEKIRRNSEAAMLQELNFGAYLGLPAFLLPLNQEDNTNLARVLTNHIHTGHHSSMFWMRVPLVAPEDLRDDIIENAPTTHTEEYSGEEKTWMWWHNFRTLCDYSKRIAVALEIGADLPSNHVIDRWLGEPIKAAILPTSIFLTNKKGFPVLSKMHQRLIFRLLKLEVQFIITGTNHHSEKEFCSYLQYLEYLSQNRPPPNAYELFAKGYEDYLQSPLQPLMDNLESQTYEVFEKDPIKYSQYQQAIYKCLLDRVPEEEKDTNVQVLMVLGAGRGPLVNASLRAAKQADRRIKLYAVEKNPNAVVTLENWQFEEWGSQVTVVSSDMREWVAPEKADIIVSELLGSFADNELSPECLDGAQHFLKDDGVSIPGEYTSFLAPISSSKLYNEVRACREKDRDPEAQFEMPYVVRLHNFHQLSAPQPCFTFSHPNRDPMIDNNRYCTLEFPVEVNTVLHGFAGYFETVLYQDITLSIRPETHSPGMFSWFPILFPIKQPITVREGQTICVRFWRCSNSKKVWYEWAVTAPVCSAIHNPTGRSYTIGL

target: Full-length PRMT5 enzyme (NCBI Reference sequence NP_006100.2) co-expressed with His6-MEP50 (Homo sapiens (Human), UniProt O14744); test: PRMT5 Biochemical Assay; details: histone H4 derived peptide substrate 200 nM, 1 μM S-Adenosyl methionine, 4 hours at 37° C., Transcreener EPIGEN fluorescence polarisation
Method: Compounds of the invention may be tested for in vitro activity in the following assay: A histone H4 derived peptide is used as substrate (amino acid sequence: […]N H2). Full-length PRMT5 enzyme (NCBI Reference sequence NP_006100.2) was co-expressed with His6-MEP50 in insect cells and purified via Nickel immobilized metal affinity and gel filtration chromatography (“the enzyme”).
The 6 μL assay reactions are run in Greiner brand black 384-well low volume plates. All reactions contained assay buffer (phosphate buffered saline, 0.01% (v/v) Tween-20, 0.01% (w/v) albumin from chicken egg white, 1 mM dithiothreitol, 200 nM peptide substrate, 1 μM S-Adenosyl methionine, and 15 ng/reaction enzyme, with the enzyme being omitted from negative control reactions. Compounds were added in a volume of 100 nL from dilution series prepared in DMSO, positive and negative control reactions receiving the same volume DMSO without compound. The plates were sealed with adhesive seals and incubated for 4 hours at 37° C. Reaction progress was measured using the Transcreener™ EPIGEN methyltransferase assay (BellBrook Labs, Madison, Wis.) as recommended by the manufacturer. To each reaction 2 μL detection mix were added, containing coupling enzymes, fluorescence polarisation tracer, and AMP antibody. Plates were incubated for 90 minutes before being read on a PerkinElmer EnVision™ plate reader in fluorescence polarisation mode.

SMILES	IC50 [nM]
c1ccc(COc2ccc(-c3nc4ncccc4[nH]3)cc2)cc1 [Example 2, 2-(4-(benzyloxy)phenyl)-1H-imidazo[4,5-b]pyridine]	2220
c1ccc(OCc2ccc(-c3nc4cc(C5CCNCC5)cnc4[nH]3)cc2)cc1 [Example 9, 2-(4-(phenoxymethyl)phenyl)-6-(piperidin-4-yl)-3H-imidazo[4,5-b]pyridine]	431
c1ccc(COc2ccc(-c3nc4cc(C5CCNCC5)cnc4[nH]3)cc2)cc1 [Example 12, 2-(4-(benzyloxy)phenyl)-6-(piperidin-4-yl)-3H-imidazo[4,5-b]pyridine]	122
c1ccc(COc2ccc(-c3nc4ccc(OC5CCNCC5)nc4[nH]3)cc2)cc1 [Example 18, 2-(4-(benzyloxy)phenyl)-5-(piperidin-4-yloxy)-3H-imidazo[4,5-b]pyridine]	914
CC(C)(C)OC(=O)N1CCCC(c2ccc3nc(-c4ccc(COc5ccccc5)cc4)[nH]c3n2)C1 (stereo not shown) [Example 34, tert-butyl 3-(2-(4-(phenoxymethyl)phenyl)-3H-imidazo[4,5-b]pyridin-5-yl)piperidine-1-carboxylate]	1050
c1ccc(COc2ccc(-c3nc4ccc(-c5ccncc5)nc4[nH]3)cc2)cc1 [Example 37, 2-(4-(benzyloxy)phenyl)-5-(pyridin-4-yl)-3H-imidazo[4,5-b]pyridine]	592
Cc1cc(C2CCNCC2)cc2[nH]c(-c3ccc(OCc4ccccc4)cc3)nc12 [Example 49, 2-(4-(benzyloxy)phenyl)-4-methyl-6-(piperidin-4-yl)-1H-benzo[d]imidazole]	2620
CCOC(=O)Cc1ccnc2[nH]c(-c3ccc(OCc4ccccc4)cc3)nc12 [Example 76, ethyl 2-(2-(4-(benzyloxy)phenyl)-3H-imidazo[4,5-b]pyridin-7-yl)acetate]	2100
CC(C)(C)OC(=O)N1CCC(c2ccc3nc(-c4ccc(COc5ccccc5)cc4)[nH]c3n2)CC1 [Example 84, tert-butyl 4-(2-(4-(phenoxymethyl)phenyl)-3H-imidazo[4,5-b]pyridin-5-yl)piperidine-1-carboxylate]	866
c1ccc(COc2ccc(-c3nc4cc(N5CCNCC5)cnc4[nH]3)cc2)cc1 [Example 100, 2-(4-(benzyloxy)phenyl)-6-(piperazin-1-yl)-3H-imidazo[4,5-b]pyridine]	327
CC1(O)CCN(c2ccc3nc(-c4ccc(OCc5ccccc5)cc4)[nH]c3n2)CC1 [Example 101, 1-(2-(4-(benzyloxy)phenyl)-3H-imidazo[4,5-b]pyridin-5-yl)-4-methylpiperidin-4-ol]	224
c1ccc(OCc2nc(-c3nc4cc(C5CCNCC5)cnc4[nH]3)cs2)cc1 [Example 102, 2-(phenoxymethyl)-4-(6-(piperidin-4-yl)-3H-imidazo[4,5-b]pyridin-2-yl)thiazole]	1110
c1ccc(Cn2cc(-c3nc4cc(C5CCNCC5)cnc4[nH]3)cn2)cc1 [Example 104, 2-(1-benzyl-1H-pyrazol-4-yl)-6-(piperidin-4-yl)-3H-imidazo[4,5-b]pyridine]	2650
